Molecular target: Voltage-dependent L-type calcium channel subunit alpha-1C (Cavia porcellus, UniProt O35505)
Assay: Antagonist activity at calcium channel in Cavia porcellus (guinea pig) ileum assessed as inhibition KCl-induced muscle contraction

Chains of the proteins cited; added tags and fusions are not shown.
UniProt O35505, whole entry, looked up: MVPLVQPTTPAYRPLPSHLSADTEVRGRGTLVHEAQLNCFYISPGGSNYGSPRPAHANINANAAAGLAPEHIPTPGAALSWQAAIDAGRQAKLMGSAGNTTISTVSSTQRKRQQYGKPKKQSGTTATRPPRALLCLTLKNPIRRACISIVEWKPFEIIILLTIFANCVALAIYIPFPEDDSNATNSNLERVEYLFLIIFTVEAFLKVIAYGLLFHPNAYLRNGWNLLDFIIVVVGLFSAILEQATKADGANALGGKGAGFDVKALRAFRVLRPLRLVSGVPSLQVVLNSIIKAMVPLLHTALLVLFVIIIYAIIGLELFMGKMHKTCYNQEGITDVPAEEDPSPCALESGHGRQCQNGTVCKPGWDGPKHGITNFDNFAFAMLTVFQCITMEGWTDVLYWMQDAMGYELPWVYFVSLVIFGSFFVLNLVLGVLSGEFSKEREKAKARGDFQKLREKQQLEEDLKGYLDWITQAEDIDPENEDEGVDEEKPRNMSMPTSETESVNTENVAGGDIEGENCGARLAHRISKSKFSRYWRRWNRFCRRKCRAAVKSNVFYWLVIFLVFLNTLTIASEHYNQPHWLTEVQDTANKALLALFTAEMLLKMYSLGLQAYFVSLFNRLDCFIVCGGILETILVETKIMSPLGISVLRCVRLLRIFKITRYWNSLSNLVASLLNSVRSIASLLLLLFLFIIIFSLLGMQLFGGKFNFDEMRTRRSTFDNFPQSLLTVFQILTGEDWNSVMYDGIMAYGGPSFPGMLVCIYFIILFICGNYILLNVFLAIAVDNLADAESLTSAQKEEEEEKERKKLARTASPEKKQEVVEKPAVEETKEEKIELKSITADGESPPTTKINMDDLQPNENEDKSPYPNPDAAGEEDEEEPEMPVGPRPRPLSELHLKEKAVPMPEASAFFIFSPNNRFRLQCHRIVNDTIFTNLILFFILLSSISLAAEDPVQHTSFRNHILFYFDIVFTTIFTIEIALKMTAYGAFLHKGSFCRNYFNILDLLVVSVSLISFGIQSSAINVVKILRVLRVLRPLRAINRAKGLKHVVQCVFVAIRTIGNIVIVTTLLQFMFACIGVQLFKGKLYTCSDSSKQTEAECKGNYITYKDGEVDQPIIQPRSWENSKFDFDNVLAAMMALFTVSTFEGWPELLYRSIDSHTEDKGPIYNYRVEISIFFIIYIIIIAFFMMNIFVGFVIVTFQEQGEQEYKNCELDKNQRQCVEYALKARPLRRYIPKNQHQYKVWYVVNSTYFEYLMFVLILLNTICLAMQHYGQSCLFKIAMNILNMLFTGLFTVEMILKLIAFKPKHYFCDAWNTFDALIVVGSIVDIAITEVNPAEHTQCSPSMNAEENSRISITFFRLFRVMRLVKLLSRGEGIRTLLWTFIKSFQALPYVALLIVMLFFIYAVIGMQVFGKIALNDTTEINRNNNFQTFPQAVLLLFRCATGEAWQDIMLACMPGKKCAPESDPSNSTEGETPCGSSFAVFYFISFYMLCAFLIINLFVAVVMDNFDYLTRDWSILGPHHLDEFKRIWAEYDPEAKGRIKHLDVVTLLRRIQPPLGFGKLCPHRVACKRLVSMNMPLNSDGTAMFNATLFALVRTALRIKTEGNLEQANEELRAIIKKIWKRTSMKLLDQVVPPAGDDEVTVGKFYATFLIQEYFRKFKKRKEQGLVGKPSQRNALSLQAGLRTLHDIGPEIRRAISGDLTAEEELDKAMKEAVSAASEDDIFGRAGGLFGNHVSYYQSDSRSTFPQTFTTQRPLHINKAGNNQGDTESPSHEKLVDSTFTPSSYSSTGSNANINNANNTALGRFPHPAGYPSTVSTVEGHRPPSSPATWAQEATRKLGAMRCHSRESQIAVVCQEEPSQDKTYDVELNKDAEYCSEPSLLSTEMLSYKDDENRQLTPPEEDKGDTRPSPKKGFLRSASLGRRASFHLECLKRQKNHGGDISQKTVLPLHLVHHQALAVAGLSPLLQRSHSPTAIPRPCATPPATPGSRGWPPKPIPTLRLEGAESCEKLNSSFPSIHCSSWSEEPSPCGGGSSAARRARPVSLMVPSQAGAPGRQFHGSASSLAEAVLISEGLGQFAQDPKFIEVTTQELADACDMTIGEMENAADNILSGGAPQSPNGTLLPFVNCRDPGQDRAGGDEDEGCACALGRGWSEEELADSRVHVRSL

Compound | inhibition (INH)
CCOC1Sc2ccccc2C(O)C1Cl (centres undefined) | Dose-dependent effect
CC(C)OC1Sc2ccccc2C(O)C1Cl (centres undefined) | Dose-dependent effect
CCCCOC1Sc2ccccc2C(O)C1Cl (centres undefined) | Dose-dependent effect
CCCC(C)COC1Sc2ccccc2C(O)C1Cl (centres undefined) | Dose-dependent effect
